Molecular target: Peroxisome proliferator-activated receptor gamma (Homo sapiens, UniProt P37231)
Assay: Inhibition of PPARgamma assessed as transcriptional activity

Protein sequences, listed by entry. Tags and fused reporters are not part of them. Lines headed by an entry give the natural chain unless they say otherwise; changes in a name come on top.
UniProt P37231: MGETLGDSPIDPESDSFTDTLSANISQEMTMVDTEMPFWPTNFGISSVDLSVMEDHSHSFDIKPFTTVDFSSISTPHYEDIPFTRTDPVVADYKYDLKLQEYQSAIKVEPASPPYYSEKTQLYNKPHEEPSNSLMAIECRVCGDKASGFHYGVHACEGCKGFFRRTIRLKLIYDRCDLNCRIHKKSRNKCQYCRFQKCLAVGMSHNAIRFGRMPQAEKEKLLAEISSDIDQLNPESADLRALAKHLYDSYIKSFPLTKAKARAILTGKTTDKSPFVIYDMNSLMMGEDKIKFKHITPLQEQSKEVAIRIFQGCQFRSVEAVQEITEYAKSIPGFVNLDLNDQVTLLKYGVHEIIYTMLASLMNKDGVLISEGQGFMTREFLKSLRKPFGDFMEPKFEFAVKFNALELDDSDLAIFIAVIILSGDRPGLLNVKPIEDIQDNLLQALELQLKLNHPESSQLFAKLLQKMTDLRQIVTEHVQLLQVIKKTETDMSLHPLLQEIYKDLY

COC1Oc2cc(O)c3c(c2C(=O)N1C(=O)NCc1cccc2ccccc12)OC1=CC(O)=C(C(C)=O)C(=O)[C@]13C (stereo partly specified)
IC50: 620 nM

— ChEMBL document CHEMBL1156945, “Discovery of a novel selective PPARgamma modulator from (-)-Cercosporamide derivatives” (Bioorg Med Chem Lett, 2010)
